Laboratory results as given in patent US20090304869A1, “Peptides Having an Ace Inhibiting Effect” (priority 2005, published 2009).

What was measured:
[1] = Simulated in-vitro gastro-intestinal digestion of synthetic MAP and ITP (micro-dissolution); settings: for conc a: trial a; for conc b: trial b; for stability under gastro-intestinal conditions: synthetic peptide
[2] = Simulated in-vitro gastro-intestinal digestion of protein hydrolysate (PH); format: in vitro ADME; settings: for Concentration in PH: PH before digestion; for resistance against GIT digestion: PH in artificial gastro-intestinal tract; for Concentration in PH after digestion: after digestion in artificial human gastro intestinal tract, 125 min
Description: Milk proteins and milk protein hydrolysates are commonly known as precursors of a large range of ACE inhibitory peptides. After consumption, the proteins and peptides are subjected to various digestive enzymatic processes in the human gastrointestinal tract, which results in the release of in-vivo ACE inhibitory peptides. In order to assess the break-down of the identified bioactive peptides and the formation of novel active peptides after human consumption, PH was processed by an artificial gastro-intestinal tract, which simulated conditions typically found in the human body. At certain times samples were taken from the GIT model system. These were also analysed using the on-line HPLC-Bioassay-MS or HRS-MS system.
Digestion of protein hydrolysate (hereafter PH), a hydrolyzed casein protein isolate obtained from DSM (Delft, The Netherlands). The protein hydrolysate (PH) was prepared by incubation of 10 wt % potassium caseinate with overproduced and essentially pure endoprotease from Aspergillus niger as described in WO 02/45524.
The digestion procedure was performed using a dissolution model (Vankel) with a 100 ml flask. The temperature of the water bath was set to 37.5° C. and the paddle speed was chosen such that the sample was kept in suspension (100 rpm).
About 3.4 grams of PH (protein level of 59%) was dissolved/suspended in 100 ml Milli-Q water. During gastric simulation 5 M HCl was used to decrease the pH, at the end of gastric simulation and during the duodenal phase 5 M NaOH was used to raise the pH.
The protein hydrolysate suspension was preheated to 37.5° C. At t=0 min 0.31 g of pepsin (Fluka order no. 77161) was suspended separately in 5 ml of the sample and was directly added.
The pH was adjusted slowly by hand using a separate pH meter according to the following scheme;
At t=90 min 0.139 g of 8 times USP pancreatin (Sigma order no. P7545) was suspended separately in 5 ml of the sample and was directly added;
The experiment was stopped at t=125 min and the pH was checked (was still pH 7).
The samples were transferred into a beaker and were heated in a microwave till boiling. Subsequently, the samples were transferred into glass tubes and incubated at 95° C. for 60 min. This is necessary to inactivate all protease activity. After cooling the samples were put in falcon tubes and centrifuged for 10 min at 3000×g. The supernatant was freeze dried. The total N concentration was determined and converted to protein level using the Kjeldahl factor of casein (6.38). The protein level of the PH digest was 48.4%.

ACE = assay: Modified Matsui ACE inhibition assay; format: biochemical
Procedure: This ACE inhibition activity was assayed according to the method of Matsui et al. (Matsui, T. et al. (1992) Biosci. Biotech. Biochem. 56: 517-518) with the modifications described below.
For each sample 75 μl 3 mM hippuryl histidine leucine (Hip-His-Leu, Sigma chemicals Co.; the chemical was dissolved in 250 mM Borate containing 200 mM NaCl, pH 8.3); 20 μl 0.1 U/ml ACE (obtained at Sigma) or H2O, and 25 μl sample or H2O were mixed (see Table 1). The mixtures were incubated at 37° C. and stopped after 30 min by adding 125 μl 0.5 M HCl. Subsequently, 225 μl bicine/NaOH solution (1 M NaOH:0.25 M bicine (4:6)) was added, followed by 25 μl 0.1 M TNBS (2,4,6-Trinitrobenzenesulfonic acid, Fluka, Switzerland; in 0.1 M Na2HPO4). After incubation for 20 min. at 37° C., 4, ml 4 mM Na2SO3 in 0.2 M NaH2PO4 was added and the absorbance at 416 nm was measured with UV/Vis spectrophotometer (Shimadzu UV-1601 with a CPS controller, Netherlands).
The amount of ACE inhibition (ACEI) activity was calculated as a percentage of inhibition compared with the conversion rate of ACE in the absence of an inhibitor:
wherein • C1=Absorbance without ACE inhibitory component (=max. ACE activity) [AU]. • C2=Absorbance without ACE inhibitory component and without ACE (background) [AU]. • S1=Absorbance in the presence of ACE and the ACE inhibitory component [AU]. • S2=Absorbance in the presence of the ACE inhibitory component, but without ACE [AU].

[3] = 1 microgram/ml, 30 min (gastric)
[4] = 1 microgram/ml, 60 min (gastric)
[5] = 1 microgram/ml, 65 min (intestinal)
[6] = 1 microgram/ml, 75 min (intestinal)
[7] = 1 microgram/ml, 90 min (intestinal)
[8] = 1 microgram/ml, 120 min (intestinal)
[9] = 10 microgram/ml, 30 min (gastric)
[10] = 10 microgram/ml, 60 min (gastric)
[11] = 10 microgram/ml, 65 min (intestinal)
[12] = 10 microgram/ml, 75 min (intestinal)
[13] = 10 microgram/ml, 90 min (intestinal)
[14] = 10 microgram/ml, 120 min (intestinal)

For CC[C@H](C)[C@H](N)C(=O)N[C@H](C(=O)N1CCC[C@H]1C(=O)O)[C@@H](C)O [ITP, Ile-Thr-Pro], the “% average” value ([1]; 1 microgram/ml, 0 min) was 100%, the “% remaining trial 1” value ([1]; 1 microgram/ml, 0 min) was 100% and the “% remaining trial 2” value ([1]; 1 microgram/ml, 0 min) was 100%. For the same molecule, the conc a ([1]; 1 microgram/ml, 0 min) was 1325.201 ng/mL, the conc b ([1]; 1 microgram/ml, 0 min) was 901.297 ng/mL and the “% remaining trial 1” value [1, 3] was 93%. The conc a [1, 3] was 1236.423 ng/mL, the conc b [1, 3] was 952.165 ng/mL and the “% remaining trial 1” value [1, 4] was 72%. The “% remaining trial 2” value [1, 4] was 99%, the conc a [1, 4] was 950.665 ng/mL and the conc b [1, 4] was 893.015 ng/mL. The “% remaining trial 1” value [1, 5] was 55%, the “% remaining trial 2” value [1, 5] was 75% and the conc a [1, 5] was 722.452 ng/mL. For the same molecule, the conc b [1, 5] was 677.991 ng/mL, the “% remaining trial 1” value [1, 6] was 43% and the “% remaining trial 2” value [1, 6] was 77%. For the same molecule, the conc b [1, 6] was 698.078 ng/mL, the “% remaining trial 1” value [1, 7] was 46% and the “% remaining trial 2” value [1, 7] was 78%. For the same molecule, the conc a [1, 7] was 603.143 ng/mL, the conc b [1, 7] was 704.863 ng/mL and the “% remaining trial 1” value [1, 8] was 53%. The “% remaining trial 2” value [1, 8] was 75%, the conc a [1, 8] was 701.749 ng/mL and the conc b [1, 8] was 678.751 ng/mL. The “% average” value ([1]; 10 microgram/ml, 0 min) was 100%, the “% remaining trial 1” value ([1]; 10 microgram/ml, 0 min) was 100% and the “% remaining trial 2” value ([1]; 10 microgram/ml, 0 min) was 100%. The conc a ([1]; 10 microgram/ml, 0 min) was 11230.3 ng/mL, the conc b ([1]; 10 microgram/ml, 0 min) was 9388.467 ng/mL and the “% remaining trial 1” value [1, 9] was 78%. For the same molecule, the “% remaining trial 2” value [1, 9] was 84%, the conc a [1, 9] was 8725.687 ng/mL and the conc b [1, 9] was 7884.828 ng/mL. The “% remaining trial 1” value [1, 10] was 76%, the conc a [1, 10] was 8542.271 ng/mL and the conc b [1, 10] was 9951.495 ng/mL. The “% remaining trial 1” value [1, 11] was 60%, the “% remaining trial 2” value [1, 11] was 91% and the conc a [1, 11] was 6739.74 ng/mL. For the same molecule, the conc b [1, 11] was 8504.414 ng/mL, the “% remaining trial 1” value [1, 12] was 62% and the “% remaining trial 2” value [1, 12] was 64%. For the same molecule, the conc a [1, 12] was 7016.45 ng/mL, the conc b [1, 12] was 6052.258 ng/mL and the “% remaining trial 1” value [1, 13] was 64%. For the same molecule, the “% remaining trial 2” value [1, 13] was 60%, the conc a [1, 13] was 7212.26 ng/mL and the conc b [1, 13] was 5660.004 ng/mL. The “% remaining trial 1” value [1, 14] was 46%, the conc a [1, 14] was 5168.85 ng/mL and the “stability under gastro-intestinal conditions” value [1] was “excellent stability”. The “stability in the human intestinal tract” value [2] was “stable”, the “Concentration in PH” value [2] was 903.74 μg g^−1 powder and the “resistance against GIT digestion” value [2] was “high resistance”. The “Concentration in PH after digestion” value [2] was 889.13 μg g^−1 powder and the IC50 (ACE) was 10 µM.

With CSCC[C@H](N)C(=O)N[C@@H](C)C(=O)N1CCC[C@H]1C(=O)O [MAP, Met-Ala-Pro] the “% average” value ([1]; 1 microgram/ml, 0 min) was 100%, the “% remaining trial 1” value ([1]; 1 microgram/ml, 0 min) was 100% and the “% remaining trial 2” value ([1]; 1 microgram/ml, 0 min) was 100%. For the same molecule, the conc b ([1]; 1 microgram/ml, 0 min) was 2962.5 ng/mL, the “% remaining trial 2” value [1, 3] was 93% and the conc b [1, 3] was 2760 ng/mL. For the same molecule, the “% remaining trial 1” value [1, 4] was 64%, the conc a [1, 4] was 1902.6 ng/mL and the “% remaining trial 1” value [1, 5] was 47%. For the same molecule, the “% remaining trial 2” value [1, 5] was 56%, the conc a [1, 5] was 1384.6 ng/mL and the conc b [1, 5] was 1654.1 ng/mL. For the same molecule, the “% remaining trial 1” value [1, 6] was 43%, the “% remaining trial 2” value [1, 6] was 54% and the conc b [1, 6] was 1608.3 ng/mL. The “% remaining trial 1” value [1, 7] was 25%, the “% remaining trial 2” value [1, 7] was 31% and the conc a [1, 7] was 730.5 ng/mL. For the same molecule, the conc b [1, 7] was 911.6 ng/mL, the “% remaining trial 1” value [1, 8] was 13% and the “% remaining trial 2” value [1, 8] was 17%. For the same molecule, the conc a [1, 8] was 377.2 ng/mL, the conc b [1, 8] was 503.3 ng/mL and the “% average” value ([1]; 10 microgram/ml, 0 min) was 100%. For the same molecule, the “% remaining trial 1” value ([1]; 10 microgram/ml, 0 min) was 100%, the “% remaining trial 2” value ([1]; 10 microgram/ml, 0 min) was 100% and the conc b ([1]; 10 microgram/ml, 0 min) was 82499.2 ng/mL. The “% remaining trial 1” value [1, 9] was 61%, the “% remaining trial 2” value [1, 9] was 93% and the conc a [1, 9] was 50635.6 ng/mL. The conc b [1, 9] was 76600.6 ng/mL, the “% remaining trial 1” value [1, 11] was 35% and the “% remaining trial 2” value [1, 11] was 40%. For the same molecule, the conc a [1, 11] was 28492.5 ng/mL, the conc b [1, 11] was 33339.1 ng/mL and the “% remaining trial 1” value [1, 12] was 27%. The “% remaining trial 2” value [1, 12] was 27%, the conc a [1, 12] was 21936.4 ng/mL and the conc b [1, 12] was 21991.9 ng/mL. For the same molecule, the “% remaining trial 1” value [1, 13] was 9%, the “% remaining trial 2” value [1, 13] was 13% and the conc a [1, 13] was 7588.3 ng/mL. For the same molecule, the conc b [1, 13] was 10490.8 ng/mL, the “% remaining trial 1” value [1, 14] was 3% and the “% remaining trial 2” value [1, 14] was 3%. The conc a [1, 14] was 2810.6 ng/mL, the conc b [1, 14] was 2661.8 ng/mL and the remaining at 2 h, 1 microgram/ml ([1]; pH 6.8) was 15%. For the same molecule, the “stability under gastro-intestinal conditions” value [1] was “reasonably good stability”, the “stability in the human intestinal tract” value [2] was “stable” and the “Concentration in PH” value [2] was 2851.4 μg g^−1 powder. For the same molecule, the “resistance against GIT digestion” value [2] was “high resistance”, the “Concentration in PH after digestion” value [2] was 3095.8 μg g^−1 powder and the IC50 (ACE) was 0.4 µM.
